Source: patent US11298339B2 (priority 2017, dated 2022)

By UniProt entry, the sequences of proteins in these tests, tags left out.
UniProt Q62210, whole entry: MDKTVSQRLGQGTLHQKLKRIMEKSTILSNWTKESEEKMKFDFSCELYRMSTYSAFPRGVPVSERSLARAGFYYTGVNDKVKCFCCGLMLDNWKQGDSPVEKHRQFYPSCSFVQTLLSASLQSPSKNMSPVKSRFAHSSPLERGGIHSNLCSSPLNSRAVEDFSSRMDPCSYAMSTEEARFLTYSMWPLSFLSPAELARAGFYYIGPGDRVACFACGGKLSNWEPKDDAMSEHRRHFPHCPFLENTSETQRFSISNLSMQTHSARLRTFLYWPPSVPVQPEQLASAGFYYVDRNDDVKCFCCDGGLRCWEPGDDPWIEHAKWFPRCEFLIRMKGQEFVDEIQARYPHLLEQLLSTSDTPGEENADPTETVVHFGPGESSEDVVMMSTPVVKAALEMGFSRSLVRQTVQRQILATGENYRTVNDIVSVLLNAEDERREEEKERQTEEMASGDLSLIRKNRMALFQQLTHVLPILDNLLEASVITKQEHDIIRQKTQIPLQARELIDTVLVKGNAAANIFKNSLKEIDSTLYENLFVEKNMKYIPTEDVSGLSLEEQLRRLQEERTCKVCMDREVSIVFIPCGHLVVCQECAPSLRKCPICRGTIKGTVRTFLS
UniProt Q60989, whole entry: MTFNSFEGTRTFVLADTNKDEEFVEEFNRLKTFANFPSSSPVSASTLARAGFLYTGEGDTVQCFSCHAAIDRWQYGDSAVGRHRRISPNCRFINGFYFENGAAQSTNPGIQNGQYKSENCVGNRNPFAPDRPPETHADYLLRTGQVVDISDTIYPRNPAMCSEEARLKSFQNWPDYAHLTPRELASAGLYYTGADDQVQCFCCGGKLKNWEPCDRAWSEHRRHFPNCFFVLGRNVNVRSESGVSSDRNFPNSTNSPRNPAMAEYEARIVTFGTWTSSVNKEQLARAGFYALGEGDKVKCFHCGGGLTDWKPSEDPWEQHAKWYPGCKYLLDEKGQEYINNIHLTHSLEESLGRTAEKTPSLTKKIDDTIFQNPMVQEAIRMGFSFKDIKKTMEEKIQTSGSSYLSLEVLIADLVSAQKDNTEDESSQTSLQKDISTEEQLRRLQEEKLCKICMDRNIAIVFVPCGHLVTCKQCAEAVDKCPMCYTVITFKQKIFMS

Assays:
cIAP1 = cIAP1 (Mus musculus, UniProt Q62210); settings: 10 mg/kg i.v.; 12, 24, 48 h
XIAP = XIAP (Mus musculus, UniProt Q60989); settings: 10 mg/kg i.v.; 12, 24, 48 h

## CN[C@@H](C)C(=O)N[C@H]1CN(S(=O)(=O)c2cccc(S(=O)(=O)N3CC[C@H]4CC[C@@H](C(=O)NC(c5ccccc5)c5ccccc5)N4C(=O)[C@@H](NC(=O)[C@H](C)NC)C3)c2)CC[C@H]2CCC(C(=O)NC(c3ccccc3)c3ccccc3)N2C1=O (some centres unmarked) [Compound 1]
cIAP1
  inhibitory effect on cIAP1 in liver tissues (Western blot): inhibitory effect on cIAP1, but was significantly weaker than that on cIAP2
XIAP
  inhibitory effect on XIAP in liver tissues (Western blot): no significant inhibitory effect
